Chains of the proteins cited; added tags and fusions are not shown.
UniProt P14618, whole entry, looked up: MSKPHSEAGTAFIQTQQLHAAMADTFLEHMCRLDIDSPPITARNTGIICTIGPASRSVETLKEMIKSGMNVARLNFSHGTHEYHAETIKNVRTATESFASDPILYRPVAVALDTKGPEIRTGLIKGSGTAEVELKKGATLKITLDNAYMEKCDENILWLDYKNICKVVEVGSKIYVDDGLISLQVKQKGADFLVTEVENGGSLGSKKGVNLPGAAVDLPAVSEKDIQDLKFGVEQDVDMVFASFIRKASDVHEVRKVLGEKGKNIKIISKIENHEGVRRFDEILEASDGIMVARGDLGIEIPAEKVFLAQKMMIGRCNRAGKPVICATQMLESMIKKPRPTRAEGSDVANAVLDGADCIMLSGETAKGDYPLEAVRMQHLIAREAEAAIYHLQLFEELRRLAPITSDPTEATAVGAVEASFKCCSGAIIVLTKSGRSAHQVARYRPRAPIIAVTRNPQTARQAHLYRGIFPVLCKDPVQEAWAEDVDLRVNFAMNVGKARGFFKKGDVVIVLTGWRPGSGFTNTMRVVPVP

Only a part is listed here, and it is no random draw. Records with an inconclusive call do not appear. Active and inactive are the calls of the source. Calls come from the whole dose curve; as a rule, active = well fitted activation curve with a large enough effect; inconclusive = small, poorly fitted or top-dose-only effect; inactive = flat fitted curve, though single readings scatter.
Each molecule was assayed against Pyruvate kinase PKM (Homo sapiens) (UniProt P14618) (assay: Confirmation Concentration-Response Assay for Activators of Human Muscle isoform 2 Pyruvate Kinase: for Probe SAR). Conditions: purified PKM2, ATP generation, Kinase-Glo luminescence.
Text: NIH Chemical Genomics Center [NCGC]
Matthew G. Vander Heiden, M.D., Ph.D. [Harvard Medical School, 77 Avenue Louis Pasteur, Boston, MA 02115]
Human pyruvate kinase muscle 2 (hPK-M2) enzyme was supplied as a highly purified (>95% pure) preparation from Harvard Medical School and assayed for its ability to generate ATP from ADP using phosphoenolpyruvate (PEP) as a substrate. ATP generation was detected in a coupled reaction by luciferase-mediated luminescence, an ATP-dependent process. Pyruvate kinase substrates, PEP and ADP, were present in the assay at Km and approximately 10-fold below Km respectively. The enzyme was assayed at an intermediate level of activity to screen for both inhibitors and activators.
NCGC Assay Protocol Summary:
Three uL of substrate mix (at r.t.) in assay buffer (50 mM Imidazole pH7.2, 50 mM KCl, 7 mM MgCl2, 0.01% Tween 20, 0.05% BSA) was dispensed into white solid bottom 1,536 well microtiter plates so that the final concentrations of substrates in the assay were 0.1 mM ADP and 0.5 mM PEP. 23 nL of compound were delivered by a pin tool and 1 uL of enzyme mix (final concentration of 0.1 nM) in assay buffer (4 degree Celsius) was added. Plates were incubated at room temperature for 1 hour. Two uL of detection mix (Kinase-Glo, Promega; at 4 degree Celsius protected from light) was added and luminescence read by a ViewLux (Perkin Elmer) at 1 second exposure/plate. […]
`Nc1cccc(S(=O)(=O)N2CCCN(S(=O)(=O)c3ccc4c(c3)OCCO4)CC2)c1` was tested, and the Potency was active: 130 nM.

Reference: PubChem BioAssay AID2533 (National Center for Advancing Translational Sciences (NCATS), 2010)
Note: nearly all actives have a fitted effect of over 60% in size.
Potency is the fitted concentration of half-maximal effect.
